The results in this text go back to ChEMBL document CHEMBL3860041, “Synthesis, biological evaluation and molecular modeling study of some new methoxylated 2-benzylthio-quinazoline-4(3H)-ones as nonclassical antifolates” (Bioorg Med Chem Lett, 2016).

The test system of this experiment is Escherichia coli. Conditions: IFO 3301.

The MIC is the least concentration at which growth counts as inhibited. High values mean a need for much substance, low ones inhibition by little substance. GENTAMICIN: inhibition of growth (MIC) required 0.5 µg/mL.
